This note sets out measurements from PMC10604187 (Antioxidants, 2023).

Protein sequences, listed by entry. Tags and fused reporters are not part of them. Residues count along the entry.
UniProt C7FF04, 1-392: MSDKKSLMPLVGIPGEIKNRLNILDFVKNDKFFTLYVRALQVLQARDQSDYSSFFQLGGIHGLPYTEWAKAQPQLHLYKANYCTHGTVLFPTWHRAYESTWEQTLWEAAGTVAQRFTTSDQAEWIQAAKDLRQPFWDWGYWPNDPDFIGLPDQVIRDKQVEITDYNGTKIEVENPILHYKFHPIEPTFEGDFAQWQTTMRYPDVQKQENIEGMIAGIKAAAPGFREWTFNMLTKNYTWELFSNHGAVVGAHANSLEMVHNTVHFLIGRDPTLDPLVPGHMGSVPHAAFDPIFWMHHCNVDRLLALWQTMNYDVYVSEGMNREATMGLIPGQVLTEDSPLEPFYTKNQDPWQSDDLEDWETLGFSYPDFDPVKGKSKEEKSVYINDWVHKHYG
UniProt C7FF04, 2-392: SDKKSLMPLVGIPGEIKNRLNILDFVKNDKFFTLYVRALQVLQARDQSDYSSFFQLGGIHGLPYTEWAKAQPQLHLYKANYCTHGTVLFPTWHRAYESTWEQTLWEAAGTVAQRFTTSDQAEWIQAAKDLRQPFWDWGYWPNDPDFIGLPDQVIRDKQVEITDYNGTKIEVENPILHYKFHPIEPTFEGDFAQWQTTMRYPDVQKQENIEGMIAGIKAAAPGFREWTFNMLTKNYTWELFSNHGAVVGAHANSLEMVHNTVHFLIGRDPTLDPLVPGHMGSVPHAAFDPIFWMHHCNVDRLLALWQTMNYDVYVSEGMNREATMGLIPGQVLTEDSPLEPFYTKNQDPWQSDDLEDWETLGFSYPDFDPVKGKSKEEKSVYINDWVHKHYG

Molecules are shown by their SMILES.

Experiment [1] deals with T1, mushroom tyrosinase (Agaricus bisporus, UniProt C7FF04). As to the kind of experiment: biochemical. The method, then: Briefly, a dimethyl sulfoxide (DMSO) solution (10 µL) containing test analogs (final concentrations: 0, 5, 10, and 20 nM) was added to the wells of a 96-well plate containing mushroom tyrosinase (20 µL, 200 units/mL) and an aqueous solution (170 µL) consisting of L-dopa (final concentrations: 0.125, 0.25, 0.5, 1, 2, 4, and 8 mM) and phosphate buffer (final concentration: 14.7 mM, pH 6.5). The increase in the absorbance at 475 nm (ΔOD475/min) was measured using a VersaMax^TM microplate reader to determine the initial rate of dopachrome generation. The maximal velocity (Vmax) was determined from the y-axis intercept values of the Lineweaver–Burk plots obtained at seven different L-dopa concentrations. Dixon plots were obtained from Lineweaver–Burk plots for inhibitors by plotting the reciprocal of the reaction velocity against the inhibitor concentration.

In experiment [2] the target is T1, mushroom tyrosinase. The experiment is described as follows: Mushroom tyrosinase inhibitory assay, monophenolase activity (L-tyrosine substrate). The following applies: vs kojic acid. It is filed as biochemical. The method, then:
The effect of the analogs on enzyme inhibition was investigated in the presence of L-dopa and L-tyrosine. […] After incubating the assay mixture for 0.5 h at 37 °C, the amounts of dopachrome produced during the incubation time were evaluated by measuring the absorbances of each well at 475 nm using a VersaMax^TM microplate reader (Molecular Devices, Sunnyvale, CA, USA).

One may read the Ki as a dissociation constant, usually derived from enzyme kinetics or from competition with a known ligand.

For `Sc1nc2cc(Cl)ccc2[nH]1` [analog 4, 5-Chloro-1H-benzo[d]imidazole-2-thiol], the inhibition constant (Ki) on mushroom tyrosinase [1] came to 9.4 nM. Also, at mushroom tyrosinase [1] (Lineweaver–Burk plots, L-dopa), the “mode of tyrosinase inhibition” value is given as “mixed-type”. The “fold more potent than kojic acid, monophenolase activity” value at mushroom tyrosinase [2] is 280 fold.
